# Experimental data reported in US20230331817A1 (The Regents of the University of California, priority 2020, published 2023).
# What was measured:
# HUVEC = settings: 24 hours; 30 μM KD1TM, 30 μM BPTI, 60 mM EACA, 30 mM TXA
# [1] = tested on: primary human dermal skin fibroblasts; settings: 24 hours; 30 μM KD1TM, 30 μM BPTI, 60 mM EACA, 30 mM TXA
smiles,measurement,setting,value
"NC[C@H]1CC[C@H](C(=O)O)CC1 [TXA, tranexamic acid]","HUVEC cytotoxicity, CellTox green (FIG. 7)",HUVEC,induced toxicity
same,"Fibroblasts cytotoxicity, CellTox green (FIG. 8)",[1],induced toxicity
